In patent publication US20180100153A1, “Method and kit for use in inhiiting tumor progression, predicting or determining tumor progression state in VGF expressing cancers” (Truebio LLC, priority 2016, published 2018):

What was measured:
Conditions in all cases: gefitinib 1 μM, 1 hr
[1] = tested on: phosphorylation of ERK and AKT in VGF-expressing HCC827 cells; experiment: Immunoblotting of ERK and AKT phosphorylation
[2] = tested on: phosphorylation of EGFR, AKT and ERK in HCC827GR cells; experiment: Immunoblotting of EGFR, ERK and AKT phosphorylation; format: cell-based
Description: (§1) Photographs represent growth of HCC827 and HCC827GR cells stained by crystal violet. […] (FIG. 1D) Representative phase-contrast images of HCC827 and HCC827GR cells. Scale bar, 100 μm. (FIG. 1E) Immunofluorescence analysis for assessing the expression of E-cadherin (E-cad, green) and Vimentin (VIM, red) expressions in HCC827GR versus HCC827 cells. Nuclei were stained in blue with DAPI. Scale bar, 100 μm. (FIG. 1F) Q-PCR analysis for measuring mRNA levels of CDH1 (E-cad), EPCAM (EpCAM), Vimentin (VIM) and TWIST1 in HCC827GR versus HCC827 cells.

[3] = tested on: phosphorylation of EGFR, AKT and ERK in HCC827 cells; experiment: as above; format: cell-based
Description: as §1

For `COc1cc2ncnc(Nc3ccc(F)c(Cl)c3)c2cc1OCCCN1CCOCC1` [gefitinib], the “phosphorylation of AKT” value [1] was “not”, the “phosphorylation of ERK” value [1] was “attenuated” and the “phosphorylation of EGFR” value ([2]; HCC827GR cells) was “attenuated”. The “phosphorylation of ERK” value ([2]; HCC827GR cells) was “attenuated”, the “phosphorylation of AKT” value ([2]; HCC827GR compared to HCC827 cells) was “not diminished” and the “phosphorylation of EGFR” value [3] was “attenuated”. For the same compound, the “phosphorylation of ERK” value [3] was “attenuated”.
